Source: article PMC8972069 (Nuclear medicine and biology, 2020)
“Also recorded” adds a separate entry of the source.

By UniProt entry, the sequences of proteins in these tests, tags left out. Where a name states a change or a piece, a line headed by the entry shows the natural chain unless it says otherwise.
UniProt P47752: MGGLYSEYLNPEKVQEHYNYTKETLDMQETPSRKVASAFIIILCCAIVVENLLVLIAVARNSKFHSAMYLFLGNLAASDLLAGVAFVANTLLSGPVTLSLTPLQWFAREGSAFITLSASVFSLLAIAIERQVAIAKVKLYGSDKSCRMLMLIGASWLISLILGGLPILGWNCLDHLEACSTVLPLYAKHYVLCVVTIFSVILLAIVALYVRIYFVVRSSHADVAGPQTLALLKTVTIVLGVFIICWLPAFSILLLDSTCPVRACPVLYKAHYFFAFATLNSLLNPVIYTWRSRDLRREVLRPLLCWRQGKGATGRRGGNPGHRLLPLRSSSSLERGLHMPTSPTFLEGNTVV

Biological target: S1PR2 in rat kidney sections (Rattus norvegicus, UniProt P47752)
Type: binding, Sprague-Dawely (SD) rats
Details: 10 μM JTE-013, diabetic and control rats

For JTE-013, the “Blocking of [^125I]TZ6544 binding to kidney tissue” value was “could be blocked; also recorded: reduced the binding”.
